Laboratory results reported in patent publication US9457082B2, “Liposome including complex of hydrophobic active ingredient and polypeptide and use of the liposome” (Samsung Electronics Co., Ltd., priority 2013, dated 2016).

Test system: HepG2 liver carcinoma cells
Assay: Absorption of HSA-FITC in cells, fluorescence microscopy
Assay type: cell-based
Settings: HSA-FITC 1.25-10 mg/ml, about 20,000 HepG2 cells, 37° C., 48 hours
Method: Absorption efficiency of HSA (Abcam)-FITC in cells was confirmed.
In detail, HSA-FITC at a variety of concentrations of 1.25 mg/ml, 2.5 mg/ml, 5 mg/ml and 10 mg/ml was added to about 20,000 HepG2 liver carcinoma cells, followed by being incubated at a temperature of 37° C. for 48 hours. Next, the incubated cells were washed out with PBS. HSA absorbed in the cells was confirmed by a fluorescence microscope, and a graph showing average fluorescence intensity was shown in FIG. 6 (Normalization by Imaging Area, n=5, ANOVA and Tukey's test, mean±SEM, *: P<0.05, **: P<0.01, ***: P<0.001) (x-axis: concentration of HSA-FITC, y-axis: average fluorescence intensity of HSA-FITC).

HSA: human serum albumin conjugated to fluorescein isothiocyanate (FITC)
absorption in cells (average fluorescence intensity): efficiently absorbed in the cells
